Measured values as given in US20110224205A1 (NATIONAL TAIWAN UNIVERSITY, priority 2010, published 2011).

What was measured:
[1] = test system: EGFR, pEGFR, AKT, pAKT in CL1-5 cells; experiment: Western blot EGFR signaling, CL1-5; format: cell-based, human; conditions: gefitinib 1 μM alone, curcumin 10 and 15 μM alone, or gefitinib 1 μM + curcumin 15 μM
[2] = test system: EGFR, pEGFR, AKT, pAKT in A549 cells; experiment: Western blot EGFR signaling, A549; format: cell-based, human; conditions: gefitinib 1 μM alone, curcumin 10 and 15 μM alone, or gefitinib 1 μM + curcumin 15 μM
[3] = test system: pEGFR, pAKT in H1299 cells; experiment: Western blot EGFR signaling, H1299; format: cell-based, human; conditions: gefitinib 1 μM alone, curcumin 10 and 15 μM alone, or gefitinib 1 μM + curcumin 15 μM
[4] = test system: EGFR protein in lung adenocarcinoma cells; experiment: EGFR degradation (Western blot) and ubiquitination (immunoprecipitation); format: cell-based; conditions: gefitinib 10 μM alone; or gefitinib 1 μM + curcumin 10 μM

COc1cc2ncnc(Nc3ccc(F)c(Cl)c3)c2cc1OCCCN1CCOCC1 [gefitinib, N-(3-Chloro-4-fluoro-phenyl)-7-methoxy-6-(3-morpholin-4-ylpropoxy)quinazolin-4-amine, reference compound]
pEGFR and pAKT (FIG. 4B) [1]: minimal suppressive effect
pEGFR and pAKT (FIG. 4B) [2]: minimal suppressive effect
pEGFR and pAKT (FIG. 4B) [3]: minimal suppressive effect
EGFR ubiquitination [4]: didn't alter the EGFR ubiquitin level
